Amino acid sequences for entries named in this document (tags omitted).
UniProt P14416, whole entry: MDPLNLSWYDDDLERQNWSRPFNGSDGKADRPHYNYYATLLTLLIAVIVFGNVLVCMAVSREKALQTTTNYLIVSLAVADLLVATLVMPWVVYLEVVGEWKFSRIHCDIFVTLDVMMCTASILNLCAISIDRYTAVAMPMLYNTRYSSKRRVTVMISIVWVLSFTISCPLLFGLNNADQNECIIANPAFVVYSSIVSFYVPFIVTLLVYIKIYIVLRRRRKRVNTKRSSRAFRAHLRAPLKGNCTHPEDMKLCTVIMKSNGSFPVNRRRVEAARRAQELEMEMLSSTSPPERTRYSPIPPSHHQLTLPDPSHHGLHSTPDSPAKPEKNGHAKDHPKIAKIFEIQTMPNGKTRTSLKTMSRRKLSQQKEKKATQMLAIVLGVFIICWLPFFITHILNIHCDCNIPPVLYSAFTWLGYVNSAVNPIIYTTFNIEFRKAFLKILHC

According to ChEMBL document CHEMBL3297649, “Structure-activity relationships of privileged structures lead to the discovery of novel biased ligands at the dopamine D₂ receptor” (J Med Chem, 2014):

Biological target: D(2) dopamine receptor (Homo sapiens, UniProt P14416)
Experiment: Displacement of [3H]spiperone from human D2L receptor expressed in FlpIn CHO cell membrane after 3 hrs by liquid scintillation counting analysis
Type: cell membranes
Outline: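 Membranes from D2L FlpIn CHO cells, 3 μg, with 0.05 nM [3H]spiperone, 100 μM GppNHp and varied competitor in 20 mM HEPES, 100 mM NaCl, 6 mM MgCl2, 1 mM EGTA, 1 mM EDTA, pH 7.4, 3 h at 37 °C. Filtered on GF/B, washed in ice-cold saline, counted by liquid scintillation. Three experiments in duplicate.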

`COc1ccccc1N1CCN(CCNC(=O)OC(C)(C)C)CC1` showed a Ki of 171 nM.
